Data: ChEMBL document CHEMBL1158577, “Role of hydrophobic substituents on the terminal nitrogen of histamine in receptor binding and agonist activity: development of an orally active histamine type 3 receptor agonist and evaluation of its antistress activity in mice” (J Med Chem, 2010)

By UniProt entry, the sequences of proteins in these tests, tags left out. Where a name states a change or a piece, a line headed by the entry shows the natural chain unless it says otherwise.
UniProt Q9Y5N1: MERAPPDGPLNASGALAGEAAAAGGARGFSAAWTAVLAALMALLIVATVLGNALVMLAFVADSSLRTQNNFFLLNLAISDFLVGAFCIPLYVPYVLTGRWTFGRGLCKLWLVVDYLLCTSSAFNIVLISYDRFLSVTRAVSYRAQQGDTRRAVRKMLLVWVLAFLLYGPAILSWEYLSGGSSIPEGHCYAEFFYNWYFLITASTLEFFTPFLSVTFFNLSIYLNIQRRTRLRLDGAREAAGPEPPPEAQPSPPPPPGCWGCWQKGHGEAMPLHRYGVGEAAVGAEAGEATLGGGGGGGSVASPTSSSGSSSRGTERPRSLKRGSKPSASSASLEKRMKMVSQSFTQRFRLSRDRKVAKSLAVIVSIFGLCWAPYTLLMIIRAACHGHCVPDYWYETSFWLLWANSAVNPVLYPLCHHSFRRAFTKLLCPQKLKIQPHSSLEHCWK

Assays:
[1] = target: T1, Histamine H3 receptor (Homo sapiens, UniProt Q9Y5N1); experiment: Displacement of [3H[N-alpha-methylhistamine form human recombinant histamine H3 receptor expressed in CHO cells after 1 hr by liquid scintillation counting; format: cell-based
Outline: (§1)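 Used CHO cells stably expressing the human H3R for both affinity (pKi) and functional agonist measurements. Each value is the mean ± SEM of n = 3.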

[2] = target: T1, Histamine H3 receptor; experiment: Agonist activity at human recombinant histamine H3 receptor expressed in CHO cells assessed as [35S]GTPgammaS binding after 1 hr by liquid scintillation counting; format: functional, cell-based; outline: as §1

Ki [1]: 56 nM
EC50 [2]: 320 nM
SMILES: c1ccc(NCCc2c[nH]cn2)cc1
